Assay results reported in ChEMBL document CHEMBL1128040, “Acyl CoA:cholesterol acyltransferase (ACAT) inhibitors: heterocyclic bioisosteres for the urea group in DuP 128” (Bioorg Med Chem Lett, 1995).

Molecular target: T1, Sterol O-acyltransferase 1 (Mus musculus, UniProt Q61263)
T1 sequence (Q61263 whole entry): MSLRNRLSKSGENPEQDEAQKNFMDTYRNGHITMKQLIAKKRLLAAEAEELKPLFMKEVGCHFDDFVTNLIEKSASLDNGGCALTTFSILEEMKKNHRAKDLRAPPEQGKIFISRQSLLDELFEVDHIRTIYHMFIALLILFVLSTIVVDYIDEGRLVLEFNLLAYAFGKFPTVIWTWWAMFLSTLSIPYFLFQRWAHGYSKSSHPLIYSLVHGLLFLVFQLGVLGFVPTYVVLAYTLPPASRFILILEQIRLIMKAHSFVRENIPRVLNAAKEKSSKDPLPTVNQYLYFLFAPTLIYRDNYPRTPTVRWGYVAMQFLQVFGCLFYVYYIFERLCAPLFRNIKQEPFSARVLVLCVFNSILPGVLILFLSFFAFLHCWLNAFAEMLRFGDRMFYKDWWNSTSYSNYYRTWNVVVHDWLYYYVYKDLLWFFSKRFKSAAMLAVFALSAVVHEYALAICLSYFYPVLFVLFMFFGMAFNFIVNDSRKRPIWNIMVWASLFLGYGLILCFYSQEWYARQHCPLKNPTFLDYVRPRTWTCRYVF
Test: Inhibition of Acyl coenzyme A:cholesterol acyltransferase in J774 Macrophage cell culture
Assay type: cell-based

Compound: Cc1cc(C)n(CCCCCSc2nc(-c3ccccc3)c(-c3ccccc3)[nH]2)n1
- IC50: 90 nM
